Measured values: patent US20100029620A1, “SUBSTITUTED TRIAZOLINE, TETRAZOLONE AND IMIDAZOLONE DERIVATIVES FOR USE AS A MEDICINE” (JANSSEN PHARMACEUTICA N.V., priority 2004, published 2010)

Sequences of proteins named here, by UniProt entry; tags and fusion partners are left off.
UniProt P08913, whole entry: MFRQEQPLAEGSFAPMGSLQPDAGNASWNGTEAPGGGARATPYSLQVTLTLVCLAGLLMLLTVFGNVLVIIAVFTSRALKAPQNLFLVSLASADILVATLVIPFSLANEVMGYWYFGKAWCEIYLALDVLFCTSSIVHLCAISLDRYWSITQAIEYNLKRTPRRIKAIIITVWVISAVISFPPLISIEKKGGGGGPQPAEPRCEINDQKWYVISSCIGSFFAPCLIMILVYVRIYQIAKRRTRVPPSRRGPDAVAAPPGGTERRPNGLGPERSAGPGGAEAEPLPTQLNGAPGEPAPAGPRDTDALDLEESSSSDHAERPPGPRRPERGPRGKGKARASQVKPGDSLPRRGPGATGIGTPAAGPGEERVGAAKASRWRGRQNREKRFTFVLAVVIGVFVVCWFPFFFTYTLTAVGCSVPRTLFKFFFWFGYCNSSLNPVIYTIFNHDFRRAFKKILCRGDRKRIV
UniProt P18825, whole entry: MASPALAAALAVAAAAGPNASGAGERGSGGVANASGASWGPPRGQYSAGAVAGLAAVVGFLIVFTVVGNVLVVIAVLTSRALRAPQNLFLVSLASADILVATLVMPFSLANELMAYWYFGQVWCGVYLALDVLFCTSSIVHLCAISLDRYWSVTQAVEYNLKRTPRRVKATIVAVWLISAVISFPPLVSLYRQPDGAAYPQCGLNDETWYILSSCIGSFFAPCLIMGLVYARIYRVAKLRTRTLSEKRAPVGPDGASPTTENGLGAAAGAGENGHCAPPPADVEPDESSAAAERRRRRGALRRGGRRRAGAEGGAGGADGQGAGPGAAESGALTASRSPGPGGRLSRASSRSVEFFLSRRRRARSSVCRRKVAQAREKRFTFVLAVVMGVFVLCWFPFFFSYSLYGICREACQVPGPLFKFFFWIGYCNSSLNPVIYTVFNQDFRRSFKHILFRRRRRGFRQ
UniProt P18089, whole entry: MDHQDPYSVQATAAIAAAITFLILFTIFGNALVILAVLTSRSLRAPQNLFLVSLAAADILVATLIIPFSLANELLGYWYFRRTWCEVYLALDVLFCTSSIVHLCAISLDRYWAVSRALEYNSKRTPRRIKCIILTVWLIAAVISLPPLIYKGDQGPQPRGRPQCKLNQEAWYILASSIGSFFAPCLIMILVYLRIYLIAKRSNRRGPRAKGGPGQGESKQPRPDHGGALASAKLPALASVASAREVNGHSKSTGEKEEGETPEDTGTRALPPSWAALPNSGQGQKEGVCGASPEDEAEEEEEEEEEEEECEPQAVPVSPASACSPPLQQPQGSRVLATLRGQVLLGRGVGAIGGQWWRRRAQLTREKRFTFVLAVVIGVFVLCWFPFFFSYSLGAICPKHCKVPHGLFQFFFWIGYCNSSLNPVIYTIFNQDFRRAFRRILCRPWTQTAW

Tests used:
[1] = target: human adrenergic-α2A receptor (Homo sapiens, UniProt P08913); assay: Radioligand binding experiment for α2A-adrenoceptor ([3H]-raulwolscine competition, CHO cell membranes); conditions: [3H]raulwolscine 1 nM, membranes of CHO cells transfected with human α2A receptor
Method: (§1) The interaction of the compounds of Formula (I) with α2C-adrenoceptor receptors was assessed in in vitro radioligand binding experiments. In general, a low concentration of a radioligand with a high binding affinity for a particular receptor or transporter is incubated with a sample of a tissue preparation enriched in a particular receptor or transporter or with a preparation of cells expressing cloned human receptors in a buffered medium. During the incubation, the radioligand binds to the receptor or transporter. When equilibrium of binding is reached, the receptor bound radioactivity is separated from the non-bound radioactivity, and the receptor- or transporter-bound activity is counted. The interaction of the test compounds with the receptor is assessed in competition binding experiments. Various concentrations of the test compound are added to the incubation mixture containing the receptor- or transporter preparation and the radioligand. The test compound in proportion to its binding affinity and its concentration inhibits binding of the radioligand. The radioligand used for […] receptor binding was [^3H]-raulwolscine.
(§2) CHO cells, stabile transfected with human adrenergic-α2A-, -α2B or α2C receptor cDNA, were cultured in Dulbecco's Modified Eagle's Medium (DMEM)/Nutrient mixture Ham's F12 (ratio 1:1)(Gibco, Gent-Belgium) supplemented with 10% heat inactivated fetal calf serum (Life Technologies, Merelbeke-Belgium) and antibiotics (100 IU/ml penicillin G, 100 μg/ml streptomycin sulphate, 110 μg/ml pyruvic acid and 100 μg/ml L-glutamine). One day before collection, cells were induced with 5 mM sodiumbutyrate. Upon 80-90% of confluence, cells were scraped in phosphate buffered saline without Ca^2+ and Mg^2+ and collected by centrifugation at 1500×g for 10 min. The cells were homogenised in Tris-HCl 50 mM using an Ultraturrax homogenizer and centrifuged for 10 min at 23,500×g. The pellet was washed once by resuspension and rehomogenization and the final pellet was resuspended in Tris-HCl, divided in 1 ml aliquots and stored at −70° C.
(§3) Membranes were thawed and re-homogenized in incubation buffer (glycylglycine 25 mM, pH 8.0). […] Filter-bound radioactivity was determined by scintillation counting in a Topcount (Packard, Meriden, CT) and results were expressed as counts per minute (cpm). Non-specific binding was determined in the presence of 1 μM oxymetazoline for hα2A- and hα2B receptors and 1 μM spiroxatrine for hα2C receptors.
(§4) Data from assays in the presence of compound were calculated as a percentage of total binding measured in the absence of test compound. […]

[2] = target: human adrenergic-α2C receptor (Homo sapiens, UniProt P18825); assay: Radioligand binding experiment for α2C-adrenoceptor ([3H]-raulwolscine competition, CHO cell membranes); conditions: [3H]raulwolscine 1 nM, membranes of CHO cells transfected with human α2C receptor
Method: as §1, §2, §3, §4

[3] = target: human adrenergic-α2B receptor (Homo sapiens, UniProt P18089); assay: Radioligand binding experiment for α2B-adrenoceptor ([3H]-raulwolscine competition, CHO cell membranes); conditions: [3H]raulwolscine 1 nM, membranes of CHO cells transfected with human α2B receptor
Method: as §1, with “[^3H]-raulwolscine. […]” for “[^3H]-raulwolscine.”
as §3, §4

Row | SMILES | pIC50 α2A [1] | pIC50 α2C [2] | pIC50 α2B [3] | pIC50 α2A ([1]; tested form: HCl) | pIC50 α2C ([2]; tested form: HCl) | pIC50 α2B ([3]; tested form: HCl)
1 | CN1CCN(Cc2ccc(-n3cnn(CC4CCN(CCOc5ccccc5)CC4)c3=O)cc2)CC1 | 7.0 | 8.3 | 7.7 |  |  | 
2 | O=c1n(-c2ccc(CN3CCCCC3)cc2)cnn1CCNCCOc1ccccc1 |  |  |  | 7.5 | 9.1 | 7.2
3 | Cc1ccc(CN2CCC(Cn3ncn(-c4ccc(CN5CCOCC5)cc4)c3=O)CC2)o1 | <5 | 6.1 |  |  |  | 
4 | CN1CCN(Cc2ccc(-n3cnn(CCNCCOc4ccccc4)c3=O)cc2)CC1 |  |  |  | 7.0 | 8.8 | 7.2
